From patent US7919623B2, “Naphthyridine derivatives having inhibitory activity against HIV integrase” (Shionogi & Co., Ltd., priority 2004, dated 2011) come the findings set out here.

Molecules are shown by their SMILES.

By IC50 is commonly meant the point on the concentration scale where inhibition reaches its midpoint. The low end stands for higher potency, the high end for lower potency.

This test addresses HIV integrase (Human immunodeficiency virus type 1 group M subtype B, UniProt P04585). In words: biochemical.
Compound `COCCNC(=O)c1nc(C(=O)OCCOC)c2cc(Cc3ccc(F)cc3)cnc2c1O` [Example A-5, 3-(4-fluorobenzyl)-8-hydroxy-7-(2-methoxyethylcarbamoyl)[1,6]naphthyridine-5-carboxylic acid 2-methoxyethyl ester] had an IC50 of 9.84 nM.

Consider `COCCNC(=O)c1nc(C(=O)OC2CCN(C(C)=O)CC2)c2cc(Cc3ccc(F)cc3)cnc2c1O` [Example A-6, 3-(4-fluorobenzyl)-8-hydroxy-7-(2-methoxyethylcarbamoyl)[1,6]naphthyridine-5-carboxylic acid 1-acetylpiperidine-4-yl ester], for which the IC50 was 10.7 nM.

Turning to `COCCNC(=O)c1nc(NC(=O)C(=O)NOC)c2cc(Cc3ccc(F)cc3)cnc2c1O` [Example A-9, N-[3-(4-fluorobenzyl)-8-hydroxy-7-(2-methoxyethylcarbamoyl)[1,6]naphthyridine-5-yl]-N′-methoxy oxalamide], half-maximal inhibition (IC50) was put at 127 nM.

In turn, `CONC(=O)C(=O)Nc1nc(C(=O)NN(C)C)c(O)c2ncc(Cc3ccc(F)cc3)cc12` [Example A-10, N-[7-(N′,N′-dimethylhydrazinocarbonyl)-3-(4-fluorobenzyl)-8-hydroxy[1,6]naphthyridine-5-yl]-N′-methoxy oxalamide] had a half-maximal inhibitory concentration (IC50) of 149 nM.

In turn, `COCCNC(=O)C(=O)Nc1nc(C(=O)NN(C)C)c(O)c2ncc(Cc3ccc(F)cc3)cc12` [Example B-25, N-[7-(N′,N′-dimethylhydrazinocarbonyl)-3-(4-fluorobenzyl)-8-hydroxy[1,6]naphthyridine-5-yl]-N′-(2-methoxyethyl)oxalamide] gave an IC50 of 39.2 nM.

`CN(C)NC(=O)c1nc(NC(=O)C(=O)N(C)C)c2cc(Cc3ccc(F)cc3)cnc2c1O` [Example B-26, N-[7-(N′,dimethylhydrazinocarbonyl)-3-(4-fluorobenzyl)-8-hydroxy[1,6]naphthyridine-5-yl]-N′,N′-dimethyl oxalamide] had a half-maximal inhibitory concentration (IC50) of 39.6 nM.

`CNC(=O)C(=O)Nc1nc(C(=O)NCCO)c(O)c2ncc(Cc3ccc(F)cc3)cc12` [Example B-27, N-[3-(4-fluorobenzyl)-8-hydroxy-7-(2-hydroxyethylcarbamoyl)[1,6]naphthyridine-5-yl]-N′-methyl oxalamide] showed an IC50 of 40.8 nM.

Compound `CNC(=O)C(=O)Nc1nc(C(=O)NC(C)CO)c(O)c2ncc(Cc3ccc(F)cc3)cc12` (stereo not drawn) [Example B-28, N-[3-(4-fluorobenzyl)-8-hydroxy-7-(2-hydroxy-1-methylethylcarbamoyl)[1,6]naphthyridine-5-yl]-N′-methyl oxalamide] had a concentration for half-maximal inhibition (IC50) of 46.1 nM.

`CNC(=O)C(=O)Nc1nc(C(=O)NCCCN(C)C)c(O)c2ncc(Cc3ccc(F)cc3)cc12` [Example B-29, N-[7-(3-dimethylaminopropylcarbamoyl)-3-(4-fluorobenzyl)-8-hydroxy[1,6]naphthyridine-5-yl]-N′-methyl oxalamide] had a 50% inhibitory concentration (IC50) of 51.8 nM.
